Our source for the outcome values is PubChem BioAssay AID591 (National Center for Advancing Translational Sciences (NCATS), 2007).

Only a part is listed here, and it is no random draw. Active and inactive are the calls of the source. How the calls were made is not given here.

This assay can be described thus: qHTS Assay for Spectroscopic Profiling in A488 Spectral Region. Conditions: compound autofluorescence, dye equivalency; Compound Type: qHTS ECL - NCI unless noted. The text has this: NIH Molecular Libraries Screening Centers Network [MLSCN]
NIH Chemical Genomics Center [NCGC]
Occasionally, the artifactual effect may originate from the compounds own spectral or other biophysical properties which generally tend to track its assay concentration. Pre-screening/profiling the library with respect to the compounds spectral properties should help one exclude false positives early on. While the most informative fluorescent profiling data set is obtained by performing a full excitation and emission scan of each well by using a monochromator-based plate reader, such an approach is practical only on a very limited scale as scanning each well requires long time. An alternative approach, applied here, is to perform plate reader scans using selected excitation and emission wavelength pairs to generate a multidimensional relational database that correlates compound concentration and the respective relative fluorescence intensity at a given wavelength set. A standard curve of Alexa 488 (A488) present on each plate as six-point concentration series, was used to compute a normalized fluorescence response, termed dye-equivalent concentration, for each compound at each concentration.
NCGC Assay Protocol Summary:
100 mM Tris buffer, pH 8.0
The wells in columns 1 through 4 of a Kalypsys polypropylene 1536-well compound plate were filled with standard solutions of fluorophore corresponding to the spectral region of interest. Solutions of A488 were placed in the following wells: Y1, Z1: 3 mM, Y2, Z2: 300 uM, Y3, Z3: 30 uM, Y4, Z4: zero (DMSO), AA1, AB1: 3 uM, AA2, AB2: 900 nM, AA3, AB3: 300 nM, AA4, AB4: zero (DMSO).
Six uL of buffer were dispensed to 1536-well Greiner black plates. Compounds and dye standards (23 nL) were transferred via Kalypsys PinTool. The plates were incubated for 15 min at room temperature, and then read on ViewLux (Perkin-Elmer) High-throughput CCD imager using 480 nm and 540 nm excitation and emission filter set.
Keywords: NIH Roadmap, MLSCN, MLI, MLSMR, qHTS, NCGC, A488, A-488, Fluorescent Profiling.
(In general: qHTS replaces the single test concentration by a dilution series.)
For the molecule `CCN(CC)CC(O)COC(=O)C(O)(c1ccccc1)C1CCCCC1` (stereo not given), the outcome is “inactive [Compound Type: qHTS ECL - MLSMR]”. `N#[O+].[C-]#N.[C-]#N.[C-]#N.[C-]#N.[C-]#N.[Fe+2].[Na+].[Na+]`: the outcome was “inactive [Compound Type: qHTS ECL - SigmaAldrich]”. The entry for `COc1ccccc1OP(C)(=O)Nc1c(C)n(C)n(-c2ccccc2)c1=O` (stereo not given) is “inactive [Compound Type: qHTS ECL - DPISMR]”; for `CCc1nc2c(n1)c1c(non1O)c1c2no[n+]1[O-]` it is “inactive [Compound Type: qHTS ECL - DPISMR]”. In the case of `O=C(CO)Nc1ccc([As](=O)(O)O)cc1`, the outcome was inactive. Take `CN(C(=O)Cc1ccccc1)[C@@H]1CC[C@@]2(CCCO2)C[C@H]1N1CCCC1`: the outcome is “inactive [Compound Type: qHTS ECL - SigmaAldrich]”. For the molecule `C/C1=C2N=C(/C=C3N=C(/C(C)=C4\[N-][C@@](C)([C@H]5N=C1[C@@](C)(CCC(=O)NC[C@H](C)OP(=O)([O-])O[C@@H]1[C@H](O)[C@H](n6cnc7cc(C)c(C)cc76)O[C@@H]1CO)[C@@H]5CC(N)=O)[C@](C)(CC(N)=O)[C@H]4CCC(N)=O)[C@@](C)(CC(N)=O)[C@@H]\3CCC(N)=O)C(C)(C)[C@@H]/2CCC(N)=O.[C-]#N.[Co+3]`, the outcome is “inactive [Compound Type: qHTS ECL - Prestwick]”. On to `COc1ccccc1OP(C)(=O)Nc1ccc(C)c(C)c1` (stereo not given), for which the outcome is “inactive [Compound Type: qHTS ECL - MLSMR]”. In the case of `Cc1nc2ccc3ccccc3c2o1.O=[N+]([O-])c1cc([N+](=O)[O-])c(O)c([N+](=O)[O-])c1` it was “inactive [Compound Type: qHTS ECL - DPISMR]”; in that of `[N-]=[N+]=NCC(O)CN=[N+]=[N-]` (stereo not given), “inactive”; in that of `C(Cc1nn[nH]n1)c1nn[nH]n1`, “inactive”.

On to `O=[N+]([O-])c1ccc(C[As](=O)(O)O)cc1`, for which the result was inactive. In the case of `NCC[C@@H](N)CSP(=O)(O)O` it was “inactive”; in that of `O=P1(Nc2nc3ccc(Cl)cc3s2)COc2ccccc2O1` (stereo not given), “inactive [Compound Type: qHTS ECL - DPISMR]”; in that of `CP(=O)(Nc1ccccc1F)Oc1ccccc1` (stereo not given), “inactive [Compound Type: qHTS ECL - MLSMR]”.

`COC(=O)c1cc2c(s1)N=C(c1ccccc1)N(C)P2(=O)N1CCOCC1` (stereo not given): the outcome was “inactive [Compound Type: qHTS ECL - MLSMR]”. In the case of `CN(C)CCOC(=O)C(O)(c1ccccc1)C1CCCCC1` (stereo not given), the outcome was “inactive [Compound Type: qHTS ECL - DPISMR]”. With `[N-]=[N+]=Nc1ccc([As](=O)(O)O)cc1`, the outcome was inactive. Turning to `O=C(OC1CN2CCC1CC2)c1cccc(Cl)c1` (stereo not given), the outcome is “inactive [Compound Type: qHTS ECL - DPISMR]”. Turning to `O=P(Nc1nccs1)(c1ccccc1)c1ccccc1`, the outcome is “inactive [Compound Type: qHTS ECL - DPISMR]”. In the case of `CCOP(C)(=S)SCC(=O)NC(C)(CC)C(=O)O` (stereo not given), the outcome is “inactive [Compound Type: qHTS ECL - DPISMR]”.

Take `c1nnnn1CCn1cnnn1`: the outcome was “inactive [Compound Type: qHTS ECL - DPISMR]”.

As to `CN1CCC[C@H](OC(=O)C(c2ccccc2)c2ccccc2)C1`, the outcome was inactive. The entry for `Cc1ccccc1NP(C)(=O)Nc1ccccc1C` is “inactive [Compound Type: qHTS ECL - DPISMR]”; for `C[C@@H](O)COc1ccc([As](=O)(O)O)cc1N` it is “inactive”; for `NNC(NN)NN.n1nc(-c2nn[nH]n2)n[nH]1` it is “inactive”. In the case of `CN(CCCl)Cc1cc(Cl)c(NC2=NCCN2)c(Cl)c1` it was “inactive [Compound Type: qHTS ECL - SigmaAldrich]”; in that of `O=P1(Nc2ccccn2)COc2ccccc2OC1`, “inactive [Compound Type: qHTS ECL - DPISMR]”; in that of `Clc1n[nH]nc1-c1nn[nH][15n]1`, “inactive [Compound Type: qHTS ECL - MLSMR]”. Take `Cc1nc2ccc3ccccc3c2s1.O=[N+]([O-])c1cc([N+](=O)[O-])c(O)c([N+](=O)[O-])c1`: the outcome is “inactive [Compound Type: qHTS ECL - DPISMR]”. Regarding `CN(C(=O)Cc1ccc(Cl)c(Cl)c1)[C@@H]1CCCC[C@H]1N1CCCC1`, the outcome was “inactive [Compound Type: qHTS ECL - SigmaAldrich]”. The entry for `Cc1nn(-c2ccccc2)c2c1P(=O)(N1CCOCC1)N(C)C(c1ccccc1)=N2` (stereo not given) is “inactive [Compound Type: qHTS ECL - MLSMR]”. For the molecule `O=P1(Nc2ncccn2)COc2ccccc2OC1`, the outcome was “inactive [Compound Type: qHTS ECL - DPISMR]”. For the molecule `O=P1(Nc2ccc(Br)cn2)COc2ccccc2OC1`, the outcome was “inactive [Compound Type: qHTS ECL - DPISMR]”. In the case of `Cc1ccc(OCC(=O)OC2CN3CCC2CC3)cc1` (stereo not given) it was “inactive [Compound Type: qHTS ECL - MLSMR]”. With `CCOP1(=S)c2c(C)nn(CCC#N)c2N=C(c2ccccc2F)N1C` (stereo not given), the outcome was “inactive [Compound Type: qHTS ECL - MLSMR]”. Regarding `O=P(Nc1nccs1)(c1ccccc1)c1nc2ccccc2s1` (stereo not given), the outcome is “inactive [Compound Type: qHTS ECL - MLSMR]”. In the case of `O=[As](O)(O)c1ccc([As](=O)(O)O)cc1` it was “inactive”; in that of `NC(=O)Nc1ccc([As](=O)(O)O)cc1`, “inactive [Compound Type: qHTS ECL - Prestwick]”. As for `CCOP1(=S)c2c(C)nn(CCC#N)c2N=C(c2ccc(F)cc2)N1C` (stereo not given), the outcome is “inactive [Compound Type: qHTS ECL - MLSMR]”. As for `Cc1cccc(OCC(=O)OC2CN3CCC2CC3)c1` (stereo not given), the outcome is “inactive [Compound Type: qHTS ECL - MLSMR]”. With `O=C(CC(=O)c1ccccc1)O[C@H]1CN2CCC1CC2`, the outcome was inactive.

Consider `NS(=O)(=O)Cc1ccc([As](=O)(O)O)cc1`, for which the result was inactive. Take `CN(C(=O)Cc1ccc(Cl)c(Cl)c1)[C@@H]1CC[C@@]2(CCCO2)C[C@H]1N1CCCC1`: the outcome was “inactive [Compound Type: qHTS ECL - SigmaAldrich]”.

With `O=C(OC1CN2CCC1CC2)C12CC3CC(CC(C3)C1)C2` (stereo not given), the outcome is “inactive [Compound Type: qHTS ECL - DPISMR]”. On to `NC(=O)Nc1cc([As](=O)(O)O)cc(I)c1O`, for which the outcome was inactive. For the molecule `[N-]=[N+]=NCC(N)=O`, the result was inactive. As for `COc1ccccc1OP(C)(=O)Nc1ccc(C)cc1` (stereo not given), the outcome is “inactive [Compound Type: qHTS ECL - MLSMR]”. For `O=[As]c1ccc(S(=O)(=O)NCCO)cc1` (stereo not given), the outcome was inactive. For `N1=C(c2nnc(-c3nn[nH]n3)nn2)NNN1`, the result was inactive. Consider `CP(=S)(Nn1cnnc1)Oc1ccccc1` (stereo not given), for which the outcome was “inactive [Compound Type: qHTS ECL - DPISMR]”. Turning to `COP1(=S)c2c(C)nn(CCC#N)c2N=C(c2ccc(F)cc2)N1C` (stereo not given), the outcome was “inactive [Compound Type: qHTS ECL - MLSMR]”. As to `O=C(O)[C@@H](O)c1ccc([As](=O)(O)O)cc1`, the result was inactive. Regarding `CP(=O)(NC(=O)Nc1ccccc1)Oc1ccccc1` (stereo not given), the outcome is “inactive [Compound Type: qHTS ECL - MLSMR]”. The entry for `O=C(COc1ccccc1)OC1CN2CCC1CC2` (stereo not given) is “inactive [Compound Type: qHTS ECL - DPISMR]”.
